Source: patent US9115117B2, “Substituted piperidine compounds and their use as orexin receptor modulators” (JANSSEN PHARMACEUTICA NV, priority 2013, dated 2015)

Amino acid sequences for entries named in this document (tags omitted).
UniProt O43614, whole entry: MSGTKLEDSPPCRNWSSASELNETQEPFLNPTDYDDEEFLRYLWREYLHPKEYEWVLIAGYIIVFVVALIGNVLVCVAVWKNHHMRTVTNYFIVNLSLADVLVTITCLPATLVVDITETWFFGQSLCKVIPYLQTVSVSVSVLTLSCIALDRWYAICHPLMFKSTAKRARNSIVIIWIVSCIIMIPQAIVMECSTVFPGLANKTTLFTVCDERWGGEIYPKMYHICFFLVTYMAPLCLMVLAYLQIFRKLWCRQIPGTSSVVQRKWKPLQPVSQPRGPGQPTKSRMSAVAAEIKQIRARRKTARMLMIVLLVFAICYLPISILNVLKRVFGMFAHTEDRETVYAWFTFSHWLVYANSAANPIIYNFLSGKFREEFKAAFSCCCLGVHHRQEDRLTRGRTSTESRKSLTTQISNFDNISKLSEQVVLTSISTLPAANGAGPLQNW

How the values were obtained:
human orexin 1 receptor = human orexin 1 receptor (Homo sapiens, UniProt O43613); assay: Human orexin 1 receptor radioligand binding; conditions: CHO cells stably expressing human orexin 1 receptor; apparent Ki; read-out: hOX1 Ki
Procedure: The in vitro affinity of the compounds of the invention for the rat/human orexin 1 and human orexin 2 receptors was determined by competitive radioligand binding using [^3H](1-(5-(2-fluoro-phenyl)-2-methyl-thiazol-4-yl)-1-((S)-2-(5-phenyl-(1,3,4)oxadiazol-2-ylmethyl)-pyrrolidin-1-yl)-methanone)(Langmead et al., 2004) and [^3H]EMPA (n-ethyl-2[96-methoxy-pyridin-3-yl)-(toluene-2-sulfonyl)-amino]-N-pyridin-3-ylmethyl acetamide), respectively (Langmead et al., 2004, British Journal of Pharmacology 141:340-346; Malherbe et al., 2004, British Journal of Pharmacology 156:1326-41).
Human Embryonic Kidney 293 cells (HEK293) stably expressing rat orexin 1 receptor (Genebank accession number NM_001525) or Chinese ovary cells (CHO) stably expressing human orexin 1 receptor (Genebank accession number NM_001526) were grown to confluency in DMEM (Hyclone, cat #SH30022), 10% FBS, 1× Pen/Strep, 1× sodium pyruvate, 10 mM HEPES, 600 µg/mL G418 and DMEM/F12 (Gibco, Cat #11039), 10% FBS, 1× Pen/Strep, 600 µg/mL G418 media, respectively on 150 cm^2 tissue culture plates, washed with 5 mM EDTA in PBS (HyClone Dulbecco's Phoshpate Buffered Saline 1× with Calcium and Magnesium, Cat #SH30264.01, hereafter referred to simply as PBS) and scraped into 50 ml tubes. After centrifugation (2K×G, 5 min at 4° C.), the supernatant was aspirated and the pellets frozen and stored at −80° C. Cells were resuspended in PBS in the presence of 1 tablet of protease inhibitor cocktail (Roche, Cat. #11836145001) per 50 mL. Each cell pellet from a 15 cm plate was resuspended in 10 mL, stored on ice, and homogenized for 45 sec prior to addition to the reactions. Competition binding experiments in 96 well polypropylene plates were performed using [^3H]-(1-(5-(2-fluoro-phenyl)-2-methyl-thiazol-4-yl)-1-((S)-2-(5-phenyl-(1,3,4)oxadiazol-2-ylmethyl)-pyrrolidin-1-yl)-methanone) (Moraveck Corporation, specific activity=35.3 Ci/mmol), diluted to a 10 nM concentration in PBS (4 nM final). Compounds were solubilized in 100% DMSO (Acros Organics, Cat. #61042-1000) and tested over a range of 7 concentrations (from 0.1 nM to 10 μM). The final concentration of DMSO in the reactions is equal to or less than 0.1%. Total and nonspecific binding was determined in the absence and presence of 10 μM almorexant. The total volume of each reaction is 200 μL (20 μL of diluted compounds, 80 μL of [3H]-(1-(5-(2-fluoro-phenyl)-2-methyl-thiazol-4-yl)-1-((S)-2-(5-phenyl-(1,3,4)oxadiazol-2-ylmethyl)-pyrrolidin-1-yl)-methanone) diluted in PBS and 100 μL of the cell suspension). Reactions were run for 60 min at room temperature and terminated by filtration through GF/C filter plates (PerkinElmer, Cat. #6005174) presoaked in 0.3% polyethylenimine using the cell harvester (PerkinElmer Filtermate). The plates were washed 3 times by aspirating 30 ml PBS through the plates. Plates were dried in 55° C. oven for 60 min, scintillation fluid was added, and the radioactivity was counted on a Topcount (Packard).

human orexin 2 receptor = human orexin 2 receptor (Homo sapiens (Human), UniProt O43614); assay: Human orexin 2 receptor radioligand binding ([3H]-EMPA); conditions: HEK293 stably expressing human orexin 2 receptor, apparent Ki, read-out: hOX2 Ki
Procedure: After centrifugation (2K×G, 5 min at 4° C.), the supernatant was aspirated and the pellets frozen and stored at −80° C. […] Each cell pellet from a 15 cm plate was resuspended in 10 mL, stored on ice, and homogenized for 45 sec just prior to addition to the reactions. Competition binding experiments in 96 well polypropylene plates were performed using [^3H]-EMPA (Moraveck Corporation, specific activity=29.6 Ci/mmol), diluted to a 5 nM concentration in PBS (2 nM final concentration). […] The final concentration of DMSO in the reactions is equal to or less than 0.1%. Total and nonspecific binding was determined in the absence and presence of […]. The total volume of each reaction is 200 μL (20 μL of diluted compounds, 80 μL of [^3H]-EMPA diluted in PBS and 100 μL of the cell suspension).
The plates were washed 3 times by aspirating 30 ml PBS through the plates. Plates were dried in 55° C. oven for 60 min, scintillation fluid was added, and the radioactivity was counted on a Topcount (Packard).

rat orexin 1 receptor = rat orexin 1 receptor (Rattus norvegicus, UniProt P56718); assay: Rat orexin 1 receptor radioligand binding; conditions: HEK293 cells stably expressing rat orexin 1 receptor; apparent Ki; read-out: rOX1 Ki
Procedure: After centrifugation (2K×G, 5 min at 4° C.), the supernatant was aspirated and the pellets frozen and stored at −80° C. […] Each cell pellet from a 15 cm plate was resuspended in 10 mL, stored on ice, and homogenized for 45 sec prior to addition to the reactions. Competition binding experiments in 96 well polypropylene plates were performed using [^3H]-(1-(5-(2-fluoro-phenyl)-2-methyl-thiazol-4-yl)-1-((S)-2-(5-phenyl-(1,3,4)oxadiazol-2-ylmethyl)-pyrrolidin-1-yl)-methanone) (Moraveck Corporation, specific activity=35.3 Ci/mmol), diluted to a 10 nM concentration in PBS (4 nM final). […] The final concentration of DMSO in the reactions is equal to or less than 0.1%. Total and nonspecific binding was determined in the absence and presence of 10 μM almorexant. The total volume of each reaction is 200 μL (20 μL of diluted compounds, 80 μL of [3H]-(1-(5-(2-fluoro-phenyl)-2-methyl-thiazol-4-yl)-1-((S)-2-(5-phenyl-(1,3,4)oxadiazol-2-ylmethyl)-pyrrolidin-1-yl)-methanone) diluted in PBS and 100 μL of the cell suspension). […] The plates were washed 3 times by aspirating 30 ml PBS through the plates. Plates were dried in 55° C. oven for 60 min, scintillation fluid was added, and the radioactivity was counted on a Topcount (Packard).

SMILES | Ki (human orexin 1 receptor) | Ki (human orexin 2 receptor) | Ki (rat orexin 1 receptor)
Cc1ccc(-c2ncccn2)c(C(=O)N2CCC[C@@H](Nc3cc(C)nc(C(F)(F)F)n3)[C@@H]2C)c1 (racemic) [Example 7, (±)-trans-(5-methyl-2-(pyrimidin-2-yl)phenyl)(2-methyl-3-((6-methyl-2-(trifluoromethyl)pyrimidin-4-yl)amino)piperidin-1-yl)methanone] | 126 nM |  | 
Cc1ccc(C(=O)N2CCC[C@@H](Nc3nccc(C(F)(F)F)n3)[C@@H]2C)c(-n2ccnn2)n1 (racemic) [Example 11, (±)-trans-(6-methyl-2-(1H-1,2,3-triazol-1-yl)pyridin-3-yl)(2-methyl-3-((4-(trifluoromethyl)pyrimidin-2-yl)amino)piperidin-1-yl)methanone] |  | 634 nM | 
CCOc1ccc(C)nc1C(=O)N1CCC[C@@H](Nc2ccc(C(F)(F)F)cn2)[C@@H]1C (racemic) [Example 16, (±)-trans-(3-ethoxy-6-methylpyridin-2-yl)(2-methyl-3-((5-(trifluoromethyl)pyridin-2-yl)amino)piperidin-1-yl)methanone] | 38 nM |  | 35 nM
C[C@H]1[C@H](Nc2ccc(C(F)(F)F)cn2)CCCN1C(=O)c1ncccc1-n1nccn1 (racemic) [Example 21, (±)-trans-(3-(2H-1,2,3-triazol-2-yl)pyridin-2-yl)(2-methyl-3-((5-(trifluoromethyl)pyridin-2-yl)amino)piperidin-1-yl)methanone] | 25 nM |  | 19 nM
Cc1ccc(-c2ncccn2)c(C(=O)N2CCC[C@@H](Nc3ccc(C(F)(F)F)cn3)[C@@H]2C)n1 (racemic) [Example 23, (±)-trans-(2-methyl-3-((5-(trifluoromethyl)pyridin-2-yl)amino)piperidin-1-yl)(6-methyl-3-(pyrimidin-2-yl)pyridin-2-yl)methanone hydrochloride] |  |  | 36 nM
C[C@H]1[C@H](Nc2ccc(C(F)(F)F)cn2)CCCN1C(=O)c1cc(F)ccc1-n1nccn1 (racemic) [Example 24, (±)-trans-(5-fluoro-2-(2H-1,2,3-triazol-2-yl)phenyl)(2-methyl-3-((5-(trifluoromethyl)pyridin-2-yl)amino)piperidin-1-yl)methanone] | 16 nM |  | 8 nM
C[C@H]1[C@H](Nc2ncc(Cl)cn2)CCCN1C(=O)c1ccccc1-n1nccn1 (racemic) [Example 30, (±)-trans-(2-(2H-1,2,3-triazol-2-yl)phenyl)(3-((5-chloropyrimidin-2-yl)amino)-2-methylpiperidin-1-yl)methanone] |  | 656 nM | 
Cc1cnc(N[C@@H]2CCCN(C(=O)c3ccccc3-n3nccn3)[C@H]2C)nc1 (racemic) [Example 31, (±)-trans-(2-(2H-1,2,3-triazol-2-yl)phenyl)(2-methyl-3-((5-methylpyrimidin-2-yl)amino)piperidin-1-yl)methanone] | 120 nM |  | 131 nM
C[C@H]1[C@H](Nc2ccc(Cl)cn2)CCCN1C(=O)c1ccccc1-n1nccn1 (racemic) [Example 32, (±)-trans-(2-(2H-1,2,3-triazol-2-yl)phenyl)(3-((5-chloropyridin-2-yl)amino)-2-methylpiperidin-1-yl)methanone] | 12 nM |  | 
Cc1ccc(N[C@@H]2CCCN(C(=O)c3ccccc3-n3nccn3)[C@H]2C)nc1 (racemic) [Example 37, (±)-trans-(2-(2H-1,2,3-triazol-2-yl)phenyl)(2-methyl-3-((5-methylpyridin-2-yl)amino)piperidin-1-yl)methanone] |  | 824 nM | 
C[C@H]1[C@H](Nc2ncc3ccccc3n2)CCCN1C(=O)c1ccccc1-n1nccn1 (racemic) [Example 39, (±)-trans-(2-(2H-1,2,3-triazol-2-yl)phenyl)(2-methyl-3-(quinazolin-2-ylamino)piperidin-1-yl)methanone] | 12 nM |  | 32 nM
C[C@H]1[C@H](Nc2ccc(Br)cn2)CCCN1C(=O)c1ccccc1-n1nccn1 (racemic) [Example 42, (±)-trans-(2-(2H-1,2,3-triazol-2-yl)phenyl)(3-((5-bromopyridin-2-yl)amino)-2-methylpiperidin-1-yl)methanone] | 10 nM |  | 11 nM
CCOc1ccccc1C(=O)N1CCC[C@@H](Nc2nc3cc(Cl)ccc3o2)[C@@H]1C (racemic) [Example 46, (±)-trans-(3-((5-chlorobenzo[d]oxazol-2-yl)amino)-2-methylpiperidin-1-yl)(2-ethoxyphenyl)methanone] | 153 nM |  | 185 nM
C[C@H]1[C@H](Nc2cnc3ccccc3n2)CCCN1C(=O)c1ccccc1-n1nccn1 (racemic) [Example 48, (±)-trans-(2-(2H-1,2,3-triazol-2-yl)phenyl)(2-methyl-3-(quinoxalin-2-ylamino)piperidin-1-yl)methanone] | 11 nM |  | 14 nM
C[C@@H]1[C@H](Nc2ccc(Br)cn2)CCCN1C(=O)c1ccccc1-n1nccn1 (racemic) [Example 57, (±)-cis-(2-(2H-1,2,3-triazol-2-yl)phenyl)(3-((5-bromopyridin-2-yl)amino)-2-methylpiperidin-1-yl)methanone] |  |  | 720 nM
CCOc1ccccc1C(=O)N1CCC[C@@H](Nc2nc3cc(Cl)ccc3o2)[C@H]1C (racemic) [Example 61, (±)-cis-(3-((5-chlorobenzo[d]oxazol-2-yl)amino)-2-methylpiperidin-1-yl)(2-ethoxyphenyl)methanone] |  |  | 1100 nM
C[C@@H]1[C@H](Nc2cnc3ccccc3n2)CCCN1C(=O)c1ccccc1-n1nccn1 (racemic) [Example 63, (±)-cis-(2-(2H-1,2,3-triazol-2-yl)phenyl)(2-methyl-3-(quinoxalin-2-ylamino)piperidin-1-yl)methanone] |  |  | 3300 nM
C[C@H]1[C@H](Nc2ccc(Cl)cn2)CCCN1C(=O)c1ccccc1-n1nccn1 [Example 100, (2-(2H-1,2,3-triazol-2-yl)phenyl)((2S,3R)-3-((5-chloropyridin-2-yl)amino)-2-methylpiperidin-1-yl)methanone] | 12 nM |  | 

Where a name gives a salt, the structure may show the parent alone.
